{"sequences": {"note": "By UniProt entry, the sequences of proteins in these tests, tags left out.", "UniProt P35363, whole entry, looked up": "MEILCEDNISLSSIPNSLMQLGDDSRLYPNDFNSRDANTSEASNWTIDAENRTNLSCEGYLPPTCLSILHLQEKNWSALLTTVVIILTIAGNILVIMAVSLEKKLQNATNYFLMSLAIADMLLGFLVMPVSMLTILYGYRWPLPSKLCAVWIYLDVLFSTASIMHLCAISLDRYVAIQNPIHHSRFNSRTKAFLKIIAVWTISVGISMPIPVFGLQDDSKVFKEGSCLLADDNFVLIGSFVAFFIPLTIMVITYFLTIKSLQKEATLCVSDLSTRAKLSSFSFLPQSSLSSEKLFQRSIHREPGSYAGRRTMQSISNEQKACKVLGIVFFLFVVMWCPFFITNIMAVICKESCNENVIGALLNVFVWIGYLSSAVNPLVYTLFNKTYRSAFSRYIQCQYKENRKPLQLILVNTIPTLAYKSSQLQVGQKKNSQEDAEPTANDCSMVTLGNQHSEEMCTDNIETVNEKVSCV"}, "source": "PubChem BioAssay AID624169", "about": "(The Scripps Research Institute Molecular Screening Center, 2012)", "note": "This is a selection; strong and weak results do not stand in their true shares. Calls of active or inactive are those of the source.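 The calls were made as follows: active = activation above a run cutoff, the mean activation of all tested compounds plus 3 SD (cut at about 14% in these data); inactive = the rest.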"}
{"molecular_target": "5-hydroxytryptamine receptor 2A (Mus musculus) (UniProt P35363)", "assay": "mouse Htr2a agonists via beta-arrestin recruitment, primary screen, cell-based, luminescence (AID 624169);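 also: 0% = plate median of compound wells and 100% = 30 µM serotonin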", "settings": "CHO-K1 mHTR2A beta-arrestin complementation, at 7.6 µM, stronger effect = higher value, percent of 30 µM serotonin response"}
{"smiles": "CN(CCCl)Cc1cc(Cl)c(NC2=NCCN2)c(Cl)c1", "activation": "inactive: 4.33%"}
{"smiles": "CCOP(=O)(Nc1ccc(C)cn1)OCC", "activation": "inactive: -0.7%"}
{"smiles": "CCOP(=O)(NC(=NC(C)c1ccccc1)NC(C)c1ccccc1)OCC", "note": "(centres undefined)", "activation": "inactive: -4.63%"}
{"smiles": "CCC1=CC2Cc3nc4ccc(Cl)cc4c(N)c3C(C1)C2", "note": "(centres undefined)", "activation": "inactive: -0.75%"}
{"smiles": "O=P1(Nc2ccccn2)COc2ccccc2OC1", "activation": "inactive: 2.35%"}
{"smiles": "CC(C)(C)C(=O)NC(Sc1ncccn1)C(Cl)(Cl)Cl", "note": "(centres undefined)", "activation": "inactive: 7.29%"}
{"smiles": "Clc1n[nH]nc1-c1nn[nH][15n]1", "activation": "inactive: -2.85%"}
{"smiles": "O=P1(N(CCCl)CCCl)NCCC(C(F)(F)F)O1", "note": "(centres undefined)", "activation": "inactive: 4.43%"}
{"smiles": "COc1ccccc1CNC(=O)COC(=O)C(O)(c1ccccc1)c1ccccc1", "activation": "inactive: -0.55%"}
{"smiles": "CC1(CBr)Cn2c(nc3ccccc3c2=O)S1", "note": "(centres undefined)", "activation": "inactive: -2.61%"}
{"smiles": "CN(C(=O)Cc1ccc(Cl)c(Cl)c1)[C@@H]1CCCC[C@H]1N1CCCC1", "activation": "inactive: -4.92%"}
{"smiles": "CC(C)/C=N\\N=C(\\N)N[N+](=O)[O-]", "activation": "inactive: 3.48%"}
{"smiles": "Cc1ccc(C(=O)OC2CN3CCC2CC3)cc1", "note": "(centres undefined)", "activation": "inactive: -1.6%"}
{"smiles": "CC1CCC(C(C)C)C(OP(=O)(Nc2ccccn2)c2ccccc2)C1", "note": "(centres undefined)", "activation": "inactive: 1.27%"}
{"smiles": "Cc1nn(-c2ccccc2)c2c1P(=O)(N1CCOCC1)N(C)C(c1ccccc1)=N2", "note": "(centres undefined)", "activation": "inactive: 3.39%"}
{"smiles": "CCCC1OP(=O)(Nc2ccccc2)OCC1CC", "note": "(centres undefined)", "activation": "inactive: -4.65%"}
{"smiles": "O=C(/C=C/c1ccccc1)OC1CN2CCC1CC2", "note": "(centres undefined)", "activation": "inactive: -2.42%"}
{"smiles": "CN(C)C1(CNC(=O)c2ccc(S(C)(=O)=O)cc2)CCCCC1", "activation": "inactive: 0.7%"}
{"smiles": "O=P1(Nc2ncccn2)COc2ccccc2OC1", "activation": "inactive: 1.13%"}
{"smiles": "Cc1ccc(S(=O)(=O)N(CCCN)CCCc2c(C)nc(N)[nH]c2=O)cc1", "activation": "inactive: -9.11%"}
{"smiles": "NS(=O)(=O)c1cccc(NC(=O)COC(=O)C(O)(c2ccccc2)c2ccccc2)c1", "activation": "inactive: -5.73%"}
{"smiles": "O=P1(Nc2ccc(Br)cn2)COc2ccccc2OC1", "activation": "inactive: 1.72%"}
{"smiles": "Cc1ccc(OCC(=O)OC2CN3CCC2CC3)cc1", "note": "(centres undefined)", "activation": "inactive: 0.88%"}
{"smiles": "O=[As](O)(c1cccs1)c1cccs1", "activation": "inactive: 12.3%"}
{"smiles": "Nc1cccc([As](=O)(O)c2ccccc2)c1", "activation": "inactive: -2.65%"}
{"smiles": "CS(=O)(=O)c1cc([N+](=O)[O-])c2no[n+]([O-])c2c1", "activation": "inactive: -0.2%"}
{"smiles": "O=P(Nc1nccs1)(c1ccccc1)c1nc2ccccc2s1", "note": "(centres undefined)", "activation": "inactive: 2.35%"}
{"smiles": "O=P(Nc1nccs1)(Oc1ccccc1)Oc1ccccc1", "activation": "inactive: 10.1%"}
{"smiles": "CCOP1(=S)c2c(C)nn(CCC#N)c2N=C(c2ccccc2F)N1C", "note": "(centres undefined)", "activation": "inactive: -8.4%"}
{"smiles": "O=C(O)COc1ccc([As](=O)(O)O)cc1[N+](=O)[O-]", "activation": "inactive: 0.84%"}
{"smiles": "Nc1ccccc1[As](=O)(O)c1ccccc1", "activation": "inactive: 2.61%"}
{"smiles": "NC(=O)Nc1ccc([As](=O)(O)O)cc1", "activation": "inactive: -1.11%"}
{"smiles": "CN(C(=O)Cc1ccc(Cl)c(Cl)c1)[C@H]1CC[C@@]2(CCCO2)C[C@@H]1N1CCCC1", "activation": "inactive: -4.43%"}
{"smiles": "CN(C)C(=O)c1cc([N+](=O)[O-])cc2c1-c1c(cc([N+](=O)[O-])cc1[N+](=O)[O-])C2=O", "activation": "inactive: -5.27%"}
{"smiles": "O=[N+]([O-])c1ccc2c(c1)nnn2O", "activation": "inactive: -4.41%"}
{"smiles": "CN(C(=O)Cc1ccccc1)[C@@H]1CC[C@]2(CCCO2)C[C@H]1N1CCCC1", "activation": "inactive: -1.61%"}
{"smiles": "CCOP1(=S)c2c(C)nn(CCC#N)c2N=C(c2ccc(F)cc2)N1C", "note": "(centres undefined)", "activation": "inactive: -9.46%"}
{"smiles": "N#CCCN(C(=O)COC(=O)C(O)(c1ccccc1)c1ccccc1)c1ccc(F)cc1", "activation": "inactive: -0.57%"}
{"smiles": "CS(=O)(=O)c1ccc(Cl)c(NC(=O)COC(=O)C(O)(c2ccccc2)c2ccccc2)c1", "activation": "inactive: 2.34%"}
{"smiles": "COc1cc(C(=O)NCC2(N3CCOCC3)CCCCC2)cc(Cl)c1OC(C)C", "activation": "inactive: -6.3%"}
{"smiles": "O=[As](O)(O)c1cccnc1", "activation": "inactive: -1.69%"}
{"smiles": "O=C(OC1CN2CCC1CC2)c1ccc(Cl)cc1", "note": "(centres undefined)", "activation": "inactive: -0.44%"}
{"smiles": "O=[As](O)(c1cccc(O)c1)c1cccc(O)c1", "activation": "inactive: 0.9%"}
{"smiles": "Cc1cccc(OCC(=O)OC2CN3CCC2CC3)c1", "note": "(centres undefined)", "activation": "inactive: -2.12%"}
{"smiles": "CCCOP(=S)(Nc1nc(N)cc(=O)[nH]1)OCCC", "activation": "inactive: -0.06%"}
{"smiles": "Cc1ccc(NCCc2c([N+](=O)[O-])cc([N+](=O)[O-])cc2[N+](=O)[O-])cc1", "activation": "inactive: -5.31%"}
{"smiles": "Nc1cccc2c([As](=O)(O)O)cccc12", "activation": "inactive: -2.59%"}
{"smiles": "CCOP(=O)(Nc1cccc2ccccc12)OCC", "activation": "inactive: 0.88%"}
{"smiles": "COc1cc(C2NCCC3(OCCO3)C2(C)C)cc(OC)c1OC", "note": "(centres undefined)", "activation": "inactive: 0.61%"}
